This assay addresses Syk (2-635) (KSYK_HUMAN, P43405) (Homo sapiens, UniProt P43405). Put plainly: Syk enzyme assay (chip based microfluidic mobility shift assay). It counts as biochemical. Conditions: 4 μM ATP, 4 nM Syk, 60 minutes at 30° C. As to the method: A number of compounds of the present invention were assayed in a chip based microfluidic mobilitiy shift assay. All assays were performed in 384 well microtiter plates. Each assay plate contained 8-point serial dilutions for 40 test compounds, as well as four 8-point serial dilutions of staurosporine as reference compound, plus 16 high- and 16 low controls. Liquid handling and incubation steps were done on a Thermo CatX workstation equipped with a Innovadyne Nanodrop Express. Between pipetting steps, tips were cleaned in wash cycles using wash buffer. The assay plates were prepared by addition of 50 nl per well of compound solution in 90% DMSO. […] Plates with terminated kinase reactions were transferred to the Caliper LC3000 workstations for reading. […] Analytes are transported through the chip by constant buffer flow and the migration of the substrate peptide is monitored by the fluorescence signal of its label. […] Kinase activities were calculated from the amounts of formed phospho-peptide. […] values were determined from percent inhibition values at different compound concentrations by non-linear regression analysis. […]

The term IC50 denotes the concentration at which inhibition is half-maximal. For the molecule `Cn1cc2c(Nc3nc(N[C@@H]4CCCC[C@@H]4N)nnc3C(N)=O)cccc2n1` [Example 2.2, 3-((1R,2S)-2-Amino-cyclohexylamino)-5-(2-methyl-2H-indazol-4-ylamino)-[1,2,4]triazine-6-carboxylic acid amide], the IC50 came to 5.1 nM.

The record behind these values is patent US20130310387A1, “Monocyclic Heteroaryl Cycloalkyldiamine Derivatives” (NOVARTIS AG, priority 2012, published 2013).
